From patent publication EP0645379A2, “Benzoylacetylene derivatives” (priority 1993, dated 1995)

By UniProt entry, the sequences of proteins in these tests, tags left out. Residues count along the entry.
UniProt P00533, 25-1210 limits assumed: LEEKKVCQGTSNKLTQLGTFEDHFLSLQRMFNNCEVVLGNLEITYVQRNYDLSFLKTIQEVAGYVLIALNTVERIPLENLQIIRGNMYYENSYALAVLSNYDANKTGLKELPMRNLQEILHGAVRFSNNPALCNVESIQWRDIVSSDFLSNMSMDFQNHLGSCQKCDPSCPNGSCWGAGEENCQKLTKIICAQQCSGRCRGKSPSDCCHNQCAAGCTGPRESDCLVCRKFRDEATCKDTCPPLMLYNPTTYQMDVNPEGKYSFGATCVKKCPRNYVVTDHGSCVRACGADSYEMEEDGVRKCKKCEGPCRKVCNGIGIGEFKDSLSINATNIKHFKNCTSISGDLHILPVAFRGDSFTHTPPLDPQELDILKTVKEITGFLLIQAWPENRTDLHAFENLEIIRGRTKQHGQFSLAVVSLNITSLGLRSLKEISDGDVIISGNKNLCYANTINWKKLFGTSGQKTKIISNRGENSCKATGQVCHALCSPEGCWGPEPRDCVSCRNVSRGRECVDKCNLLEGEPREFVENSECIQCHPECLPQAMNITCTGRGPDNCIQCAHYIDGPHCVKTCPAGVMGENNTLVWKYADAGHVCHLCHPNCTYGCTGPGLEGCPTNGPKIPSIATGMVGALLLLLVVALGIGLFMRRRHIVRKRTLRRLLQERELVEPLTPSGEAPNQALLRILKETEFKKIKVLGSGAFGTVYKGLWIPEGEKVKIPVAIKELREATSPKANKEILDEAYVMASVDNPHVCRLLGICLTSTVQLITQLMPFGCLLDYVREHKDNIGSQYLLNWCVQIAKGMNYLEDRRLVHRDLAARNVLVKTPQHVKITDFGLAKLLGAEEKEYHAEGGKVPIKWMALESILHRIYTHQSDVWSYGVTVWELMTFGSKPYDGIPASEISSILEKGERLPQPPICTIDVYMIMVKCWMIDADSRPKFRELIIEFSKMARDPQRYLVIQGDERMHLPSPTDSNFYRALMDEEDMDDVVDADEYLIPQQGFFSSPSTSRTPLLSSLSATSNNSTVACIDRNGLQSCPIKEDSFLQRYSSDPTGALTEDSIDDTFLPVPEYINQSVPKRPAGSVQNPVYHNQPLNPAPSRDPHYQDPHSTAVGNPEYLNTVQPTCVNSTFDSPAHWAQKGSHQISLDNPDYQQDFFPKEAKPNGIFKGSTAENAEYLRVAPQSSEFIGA
UniProt P01133, 971-1023 partner limits assumed: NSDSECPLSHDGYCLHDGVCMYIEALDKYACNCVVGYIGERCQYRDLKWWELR

Tests used:
[1] = target: partially purified human EGF (epidermal growth factor) receptor tyrosine kinase (Homo sapiens, UniProt P00533); settings: read-out: Tyrosine kinase inhibitory activity (IC50, μ); Table-2 continued; partially purified EGF receptor from A431 cells; 4) hydrochloride; tested form: HCl
[2] = system: KB cell; test: Cancer cell growth inhibitory activity (KB cells, MTT colorimetric determination); assay type: cell-based, human; settings: read-out: Cancer cell growth inhibitory activity(IC50; Table-3; KB cells, three days culture, MTT; 3) fumarate, 4) hydrochloride; tested form: HCl

Compound	pIC50 [1]	pIC50 [2]
COc1ccc(C(=O)C#CC(N)(C(C)C)C(C)C)cc1OC	5.96	5.01
CCN(CC)C(C#CC(=O)c1ccc(OC)c(OC)c1)(CC)CC	5.66	6.66
CCN(CC)C(C)(C#CC(=O)c1ccc(OC)c(OC)c1C)C(C)C (stereo not drawn)	5.89	7.12

pIC50: −log10 of the molar value.
